The list shows a part of the results, in another mix than the full data. Some results for these compounds are left out of this collection, so the calls shown say nothing about other tests. Active and inactive are the calls of the source. No stated cut-off is given here; in the data, active means inhibition above about 50%; inactive means the rest.
Assay: inhibitors of TWEAK-Fn14 signaling, primary screen, luciferase reporter cells, uHTS (AID 1159606)
Settings: TWEAK-stimulated Fn14 reporter cells, luciferase luminescence, 8 h; at 10 µM; hits give high values

| Compound | inhibition |
| --- | --- |
| Cc1ccc(C(=O)NCC2(N3CCCCC3)CCCCC2)cc1 | inactive: 12.1% |
| CC(C)N1C(=O)CC2(CCN(CCOC(=O)C(O)(c3ccccc3)c3ccccc3)CC2)C1=O | inactive: 17.1% |
| CCN(CC)CC(C)C(C)OC(=O)C(O)(c1ccccc1)c1ccccc1 (stereo unspecified) | inactive: -5.81% |
| COc1cc(SC)ccc1C(=O)NCC1(N(C)C)CCCCC1 | inactive: 12.4% |
| CN1[C@@H]2CC[C@H]1CC(OC(=O)C(O)(c1ccccc1)c1ccccc1)C2 (stereo partly specified) | inactive: 5.23% |
| O=C(NCC1(N2CCCCC2)CCCCC1)c1cc([N+](=O)[O-])ccc1Cl | inactive: 7.85% |
| CCN1CCCC(OC(=O)C2(O)c3ccccc3C=Cc3ccccc32)C1 (stereo unspecified) | inactive: -0.55% |
| Cc1cc(C(=O)NCC2(N3CCCCC3)CCCCC2)ccc1[N+](=O)[O-] | inactive: 22.1% |
| O=C(NCC1(N2CCCCC2)CCCCC1)c1cccc(Br)c1 | inactive: 24.1% |
| COc1ccc(C(=O)NCC2(N(C)C)CCCCC2)cc1 | inactive: -0.71% |
| C=CCN1CCN(CCOC(=O)C(O)(c2ccccc2)c2ccccc2)CC1 | inactive: -6.22% |
| O=C(NCC1(N2CCCCC2)CCCCC1)c1cc(F)c(F)cc1Cl | inactive: 6.94% |
| Cc1ccccc1C(=O)NCC1(N2CCCCC2)CCCCC1 | inactive: 0.76% |
| CN(C)c1ccc(C(=O)NCC2(N(C)C)CCCCC2)cc1 | inactive: 4.25% |
| CN(C)C1CCCC1OC(=O)C(O)(c1ccccc1)c1ccccc1 (stereo unspecified) | inactive: -0.7% |
| O=C(NCC1(N2CCCCC2)CCCCC1)c1cccc(Cl)c1 | inactive: 25.4% |
| COc1cccc(C(=O)NCC2(N3CCCCC3)CCCCC2)c1 | inactive: -0.91% |
| COc1ccc(Cl)cc1C(=O)NCC1(N(C)C)CCCCC1 | inactive: 4.19% |
| COc1cc(C(=O)NCC2(N(C)C)CCCCC2)c([N+](=O)[O-])cc1OC | inactive: 10.7% |
| CN(C)C1(CNC(=O)c2ccc(Br)cc2)CCCCC1 | inactive: 15.6% |
| CN(C)c1cccc(C(=O)NCC2(N(C)C)CCCCC2)c1 | inactive: -9.5% |
| CC(C)Oc1ccc(C(=O)NCC2(N(C)C)CCCCC2)cc1 | inactive: -7.66% |
| O=C(OCCN1CCCC1)C(O)(c1ccccc1)c1ccccc1 | inactive: 10.5% |
| COc1ccc(Br)c(C(=O)NCC2(N3CCCCC3)CCCCC2)c1 | inactive: -2.68% |
| C=C(C)C#CC(O)(C(=O)OC1CCN(C)CC1)c1ccccc1 (stereo unspecified) | inactive: 11% |
| O=C(OC1CN2CCC1CC2)C(CO)(c1ccccc1)c1ccccc1 (stereo unspecified) | inactive: -2.9% |

Reference: PubChem BioAssay AID1159606 (Sanford-Burnham Center for Chemical Genomics, 2016)
